Key:
[1] = test system: AML, ALL, and MM cell lines; assay: Cell viability by MTT assay in AML, ALL and MM cell lines; settings: MTT assay and flow cytometry; 0-100 µM; 18 h; HL60, KG1a, U937, MV-4-11, TMLCL, Jurkat, MM1.S, OPM-2, U266; compared to untreated control cells
[2] = test system: AML cell lines; assay: Cell viability by flow cytometry in AML cell lines and donor cell subpopulations; assay type: cell-based, human; settings: HL60, U937, CD45+, CD34+, B lymphocytes and T lymphocytes, 0-100 µM, 18 h

Row | SMILES | viability of AML, ALL, and MM cell lines [1] | proapoptotic effect on AML cell lines [2]
1 | CCOP(=O)(NCCCCN=C=S)OCC | significantly reduced the viability | 
2 | CCOP(=O)(NCCCCCCCCN=C=S)OCC | significantly reduced the viability | partially selective proapoptotic effect
3 | CCOP(=O)(NCCCCCCN=C=S)OCC | significantly reduced the viability | partially selective proapoptotic effect
